The target in assay [1] is T1, full-length human RORγt (Homo sapiens (Human), UniProt P51449). Conditions: * 3 μM compound concentration.
Assay [2] deals with T1, full-length human RORγt. The assay can be described thus: cell-based. Conditions: read-out: RORγt (FL) Reporter Assay B or C, % inhibition @ 6 μM.

The chains behind the UniProt entries cited, without tags or fusion partners. A line that says so, or that is headed by a name, gives the form on record, which may keep a tag or linker.
UniProt P51449, other isoform, or with tags, fused parts or gaps: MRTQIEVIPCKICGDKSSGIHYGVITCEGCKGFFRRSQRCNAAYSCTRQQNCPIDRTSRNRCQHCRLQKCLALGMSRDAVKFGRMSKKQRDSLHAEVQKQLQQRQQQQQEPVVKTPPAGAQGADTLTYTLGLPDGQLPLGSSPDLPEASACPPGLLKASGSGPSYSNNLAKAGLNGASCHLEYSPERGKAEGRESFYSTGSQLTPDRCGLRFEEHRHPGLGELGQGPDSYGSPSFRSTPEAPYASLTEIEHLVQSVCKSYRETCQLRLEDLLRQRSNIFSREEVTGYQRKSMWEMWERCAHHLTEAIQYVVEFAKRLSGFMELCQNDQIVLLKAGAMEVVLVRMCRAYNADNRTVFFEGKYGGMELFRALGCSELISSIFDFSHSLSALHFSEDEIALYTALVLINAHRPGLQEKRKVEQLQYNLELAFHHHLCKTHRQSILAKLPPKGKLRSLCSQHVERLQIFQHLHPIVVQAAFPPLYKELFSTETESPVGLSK

Marks after values point to notes of the source that are not given here.

For `Cc1cc(C(O)(C(F)(F)F)C(F)(F)F)ccc1-c1sc(C(=O)NCC(C)(C)O)nc1C(=O)N1CCC[C@H]1C` [Example 19/1, (R)-5-(4-(1,1,1,3,3,3-Hexafluoro-2-hydroxypropan-2-yl)-2-methylphenyl)-N-(2-hydroxy-2-methylpropyl)-4-(2-methylpyrrolidine-1-carbonyl)thiazole-2-carboxamide], at full-length human RORγt [1], the “RORγt (FL) Reporter Assay B or C, % inhibition” value is 79* %.

As to `Cc1cc(C(O)(C(F)(F)F)C(F)(F)F)ccc1-c1sc(C(=O)NCC(C)(C)O)nc1C(=O)N1CCC[C@@H]1C` [Example 19, (S)-5-(4-(1,1,1,3,3,3-Hexafluoro-2-hydroxypropan-2-yl)-2-methylphenyl)-N-(2-hydroxy-2-methylpropyl)-4-(2-methylpyrrolidine-1-carbonyl)thiazole-2-carboxamide], the inhibition at 6 µM on full-length human RORγt [2] came to 107%.

The values are drawn from patent publication US10150762B2, “Trifluoromethyl alcohols as modulators of RORγt” (Janssen Pharmaceutica NV, priority 2014, dated 2018).
